Measurements published in patent US6043261A, “Pyrrolodino imidines useful as nitric oxide synthase inhibitors” (G. D. Searle & Co., priority 1998, dated 2000).
Where a name gives a salt, the structure may show the parent alone.

Assays:
[1] = target: T1, human inducible NOS (hiNOS) (Homo sapiens, UniProt P35228); test: Citrulline Assay for Nitric Oxide Synthase, hiNOS; type: biochemical; conditions: recombinant human inducible NOS, 37° C., 15 minutes
T1 construct: made in house; host or cells: insect cells, baculovirus vector
Protocol: (§1) Citrulline Assay for Nitric Oxide Synthase
(§2) Nitric oxide synthase activity was measured by monitoring the conversion of L-[2,3-3H]-arginine to L-[2,3-3H]-citrulline (1,2). The cDNA for human inducible NOS (hiNOS) was isolated from a lcDNA library made from RNA extracted from a colon sample from a patient with ulcerative colitis; human endothelial constitutive NOS (hecNOS) was isolated from a lcDNA library made from RNA extracted from human umbilical vein endothelial cells (HUVEC); and human neuronal constitutive NOS (hncNOS) was isolated from a lcDNA library made from RNA extracted from human cerebellum from a cadaver. The recombinant enzymes were expressed in insect cells using a baculovirus vector. Enzyme activity was isolated from cell extracts and partially purified by DEAE-Sepharose chromatography (2). Enzyme and inhibitors were added to give a volume of 50 μL in 50 mM Tris (pH 7.6) and the reaction initiated by the addition of 50 μL of a solution containing 50 mM Tris (pH 7.6), 2.0 mg/mL bovine serum albumin, 2.0 mM DTT, 4.0 mM CaCl2, 20 μM FAD, 100 μM tetrahydrobiopterin, 0.4-2.0 mM NADPH and 60 μM L-arginine containing 0.9 μCi of L-[2,3-3H]-arginine. […] The [3H]-citrulline was separated by chromatography on Dowex 50W X-8 cation exchange resin and radioactivity quantified with a liquid scintillation counter.

[2] = target: T2, human endothelial constitutive NOS (hecNOS) (Homo sapiens, UniProt P29474); test: Citrulline Assay for Nitric Oxide Synthase, hecNOS; type: biochemical; conditions: recombinant human endothelial constitutive NOS, 37° C., 15 minutes, calmodulin 40-100 nM
T2 construct: made in house; host or cells: insect cells, baculovirus vector
Protocol: as §1, §2

Work on `NC1=NC(Cc2ccccc2)CCC1` (centres unmarked) [Example 94, 6-(phenylmethyl)piperidin-2-imine, Monohydrochloride] yielded an IC50 [1] of 8.6 µM and an IC50 [2] of 40 µM.
